Literature values in patent US10736889B2, “Method of treating dyskinesia” (Rutgers, The State University of New Jersey, priority 2011, dated 2020).

Sequences of proteins named here, by UniProt entry; tags and fusion partners are left off. A change or cut given only in a name is not applied to a line headed by its entry.
UniProt P35372, whole entry: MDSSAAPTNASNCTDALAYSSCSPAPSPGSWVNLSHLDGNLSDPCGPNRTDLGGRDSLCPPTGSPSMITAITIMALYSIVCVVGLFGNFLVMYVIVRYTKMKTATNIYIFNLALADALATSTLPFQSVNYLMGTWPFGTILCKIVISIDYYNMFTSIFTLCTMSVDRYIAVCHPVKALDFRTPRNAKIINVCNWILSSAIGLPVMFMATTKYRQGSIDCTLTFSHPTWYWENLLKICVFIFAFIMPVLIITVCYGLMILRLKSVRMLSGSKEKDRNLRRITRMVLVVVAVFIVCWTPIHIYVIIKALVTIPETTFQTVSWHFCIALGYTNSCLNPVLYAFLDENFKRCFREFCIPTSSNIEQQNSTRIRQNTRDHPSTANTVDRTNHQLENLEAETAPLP
UniProt P41145: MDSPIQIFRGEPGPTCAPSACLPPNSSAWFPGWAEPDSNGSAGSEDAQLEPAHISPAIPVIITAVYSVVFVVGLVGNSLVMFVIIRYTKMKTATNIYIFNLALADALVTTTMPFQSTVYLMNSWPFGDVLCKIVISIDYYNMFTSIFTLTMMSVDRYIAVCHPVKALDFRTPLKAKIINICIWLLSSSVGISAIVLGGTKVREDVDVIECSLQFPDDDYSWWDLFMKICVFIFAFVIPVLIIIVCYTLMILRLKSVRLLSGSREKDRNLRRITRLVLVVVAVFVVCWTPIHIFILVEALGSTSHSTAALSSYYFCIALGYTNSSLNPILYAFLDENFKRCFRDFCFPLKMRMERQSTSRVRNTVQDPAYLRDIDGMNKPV

Columns and labels:
μ-opioid receptors = μ-opioid receptors (Homo sapiens, UniProt P35372)
κ-opioid receptors = κ-opioid receptors (Homo sapiens, UniProt P41145)

## N-allyl-normorphine [Nalorphine]
μ-opioid receptors
  Ki: ~8.13 nM
κ-opioid receptors
  Ki: ~7.66 nM
